Laboratory results: article doi:10.1101/2022.12.25.521909v1 (biorxiv, 2022)

The chains behind the UniProt entries cited, without tags or fusion partners.
UniProt O15439, whole entry, looked up: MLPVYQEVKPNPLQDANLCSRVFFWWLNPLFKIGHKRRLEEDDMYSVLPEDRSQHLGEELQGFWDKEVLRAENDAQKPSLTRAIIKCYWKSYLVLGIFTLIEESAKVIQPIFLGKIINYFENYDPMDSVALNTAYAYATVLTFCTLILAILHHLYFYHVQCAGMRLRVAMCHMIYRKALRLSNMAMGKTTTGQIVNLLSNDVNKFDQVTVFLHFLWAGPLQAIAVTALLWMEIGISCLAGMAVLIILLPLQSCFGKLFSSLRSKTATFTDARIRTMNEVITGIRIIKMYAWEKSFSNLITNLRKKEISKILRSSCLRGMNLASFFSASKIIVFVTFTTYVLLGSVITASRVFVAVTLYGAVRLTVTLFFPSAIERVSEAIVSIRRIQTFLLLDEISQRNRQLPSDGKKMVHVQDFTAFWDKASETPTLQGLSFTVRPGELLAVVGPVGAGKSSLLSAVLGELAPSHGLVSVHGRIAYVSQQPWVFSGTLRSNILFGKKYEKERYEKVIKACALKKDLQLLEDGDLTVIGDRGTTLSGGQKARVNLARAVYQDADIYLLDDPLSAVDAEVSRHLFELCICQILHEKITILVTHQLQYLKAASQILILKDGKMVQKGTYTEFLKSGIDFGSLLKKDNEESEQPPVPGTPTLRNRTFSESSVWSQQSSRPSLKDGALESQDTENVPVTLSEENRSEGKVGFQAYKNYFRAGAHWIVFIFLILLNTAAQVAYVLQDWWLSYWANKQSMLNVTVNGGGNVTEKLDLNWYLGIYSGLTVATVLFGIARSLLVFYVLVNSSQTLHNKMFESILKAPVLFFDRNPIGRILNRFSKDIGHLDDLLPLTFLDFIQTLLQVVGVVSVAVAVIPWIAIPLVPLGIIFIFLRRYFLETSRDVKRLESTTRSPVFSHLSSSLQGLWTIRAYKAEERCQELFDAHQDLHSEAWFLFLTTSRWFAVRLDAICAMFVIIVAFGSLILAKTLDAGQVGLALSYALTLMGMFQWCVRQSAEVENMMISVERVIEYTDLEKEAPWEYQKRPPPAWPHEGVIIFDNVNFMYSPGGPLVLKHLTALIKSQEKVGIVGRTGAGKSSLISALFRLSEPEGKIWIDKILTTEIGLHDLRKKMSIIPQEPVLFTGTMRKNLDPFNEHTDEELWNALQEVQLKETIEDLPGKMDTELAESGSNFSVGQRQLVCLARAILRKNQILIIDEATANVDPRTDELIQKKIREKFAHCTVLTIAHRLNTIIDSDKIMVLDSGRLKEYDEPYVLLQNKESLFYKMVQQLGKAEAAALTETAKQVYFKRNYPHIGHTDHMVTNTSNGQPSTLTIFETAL

Target: human ABCC4 (ABCC4/MRP4) (Homo sapiens, UniProt O15439)
Assay: stimulation of ATPase activity, ABCC4 in lipid nanodiscs, logistic fit
Format: biochemical
Conditions: 2 mM ATP, transmembrane substrate pocket

Compound `CCCCC[C@H](O)/C=C/[C@@H]1[C@@H](C/C=C\CCCC(=O)O)[C@H]2CO[C@@H]1C2` has an EC50 of 6.4 µM.
